Where a name gives a salt, the structure may show the parent alone.

For this assay, the system named is human neurons. Description: Iron (FeSO4) mediated neurotoxicity screening, MAP-2 positive neurons counted. Particulars: Neuron, 24 h, read-out: Drug % control (mean): number of neurons normalized to untreated control.
In the case of `COc1cc(Cc2cnc(N)nc2N)cc(OC)c1OC` [TRIMETHOPRIM], the viability at 10 µM amounted to 14%.

Regarding `CNCCC=C1c2ccccc2CCc2ccccc21` [NORTRIPTYLINE], the viability at 10 µM came out at 18.2%.

Consider `NC(N)=Nc1nc(CSCCC(N)=NS(N)(=O)=O)cs1` [FAMOTIDINE], for which the viability at 10 µM worked out at 25.2%.

For `CN(C)CCC=C1c2ccccc2C=Cc2ccccc21`, the viability at 10 µM was 98.4%.

Turning to `OC(CCN1CCCCC1)(c1ccccc1)C1CCCCC1` (stereo not shown), the viability at 10 µM came to 30.6%.

Turning to `COC(=O)[C@H](c1ccccc1Cl)N1CCc2sccc2C1` [CLOPIDOGREL SULFATE], the viability at 10 µM turned out to be 53.5%.

Regarding `CN1C(C(=O)Nc2ccccn2)=C(O)c2sccc2S1(=O)=O` [TENOXICAM], the viability at 10 µM came out at 25.9%.
